We go through 8 compounds from PubChem BioAssay (NCI).

The list shows a part of the results, in another mix than the full data.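 The endpoint reported here, percent growth, reads 100 for growth as untreated, 0 for no net growth and -100 for all cells dead.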 Active and inactive are the calls of the source. The calls were made as follows: active = growth percent below 10; inactive = the rest.

Some test systems named below: SK-MEL-2 melanoma; EKVX NSCLC; SN12C renal; UO-31 renal; TK-10 renal; ACHN renal; CAKI-1 renal; A498 renal; HL-60(TB) leukemia; CCRF-CEM leukemia; MOLT-4 leukemia; SR leukemia; RPMI-8226 leukemia; OVCAR-8 ovarian; OVCAR-5 ovarian; SK-OV-3 ovarian; IGROV1 ovarian; OVCAR-3 ovarian; HS 578T breast; OVCAR-4 ovarian.
Common to all, as to test: NCI-60 one-dose screen, 48 h (100 = growth as untreated, 0 = no growth, -100 = all killed)
Holding throughout (details): 10 µM unless noted

As for `Cc1cccc(Nc2c([N+](=O)[O-])cc([N+](=O)[O-])cc2[N+](=O)[O-])c1`, the growth with SK-MEL-2 melanoma is inactive: 105%; in the assay with EKVX NSCLC, inactive: 88.4%; in the assay with SN12C renal it was inactive: 95.3%; with UO-31 renal it was inactive: 67.8%; in the assay on TK-10 renal, inactive: 116%; in the assay on ACHN renal, inactive: 86.1%. The growth in the assay on CAKI-1 renal was inactive: 89.5%; in the assay on A498 renal, inactive: 86.1%; in the assay with HL-60(TB) leukemia, inactive: 91.7%; with CCRF-CEM leukemia it was inactive: 72.6%; with MOLT-4 leukemia, inactive: 78.9%; in the assay with SR leukemia, inactive: 91.8%. The growth is inactive: 62.8% in the assay with RPMI-8226 leukemia; inactive: 86.1% with OVCAR-8 ovarian; inactive: 103% in the assay on OVCAR-5 ovarian; inactive: 94.3% in the assay with SK-OV-3 ovarian; inactive: 85.7% with IGROV1 ovarian; inactive: 13.9% in the assay with OVCAR-3 ovarian. The growth in the assay with HS 578T breast was inactive: 96.1%.
For the compound `ClCCN(Cc1ccc(Cl)cc1)Cc1ccc(Cl)cc1`, the growth in the assay with SK-MEL-2 melanoma is inactive: 80.1%; in the assay with EKVX NSCLC, inactive: 64.7%; in the assay on SN12C renal, inactive: 94.2%; in the assay with UO-31 renal, inactive: 80.3%; with TK-10 renal, inactive: 102%; with ACHN renal, inactive: 71.1%. Moreover, the growth with CAKI-1 renal is inactive: 94.5%; in the assay on A498 renal, inactive: 101%; in the assay on HL-60(TB) leukemia, inactive: 67.9%; in the assay with CCRF-CEM leukemia it was inactive: 39.7%; in the assay with MOLT-4 leukemia it was inactive: 42.4%; with RPMI-8226 leukemia, inactive: 18.7%. Besides, the growth in the assay with OVCAR-8 ovarian was inactive: 73.4%; in the assay with OVCAR-5 ovarian, inactive: 104%; in the assay with OVCAR-4 ovarian, inactive: 92.1%; in the assay on SK-OV-3 ovarian, inactive: 102%; in the assay with IGROV1 ovarian, active: -18.9%; in the assay on OVCAR-3 ovarian, inactive: 101%. Also, in the assay on HS 578T breast, the growth is inactive: 101%.
With `COC(=O)C1(C)COP(=O)(NCc2ccccc2)OC1` (configuration not stated), the growth was inactive: 98% in the assay on SK-MEL-2 melanoma; inactive: 105% with EKVX NSCLC; inactive: 93.6% with SN12C renal; inactive: 81.9% in the assay on UO-31 renal; inactive: 88.6% in the assay with TK-10 renal; inactive: 110% with ACHN renal. Further, the growth with CAKI-1 renal was inactive: 98.1%; in the assay with A498 renal, inactive: 77.1%; in the assay on HL-60(TB) leukemia, inactive: 83%; in the assay on CCRF-CEM leukemia, inactive: 92.8%; with MOLT-4 leukemia, inactive: 80.9%; in the assay on RPMI-8226 leukemia, inactive: 120%. In addition, the growth with OVCAR-8 ovarian is inactive: 102%; in the assay with OVCAR-5 ovarian it was inactive: 105%; in the assay with OVCAR-4 ovarian, inactive: 110%; with SK-OV-3 ovarian it was inactive: 92.2%; with IGROV1 ovarian it was inactive: 110%; in the assay with OVCAR-3 ovarian, inactive: 109%. Moreover, the growth in the assay on HS 578T breast was inactive: 107%.
For `Cc1c([N+](=O)[O-])cc(C(=O)c2cc([N+](=O)[O-])cc([N+](=O)[O-])c2)cc1[N+](=O)[O-]`, the growth with SK-MEL-2 melanoma was inactive: 98.6%; in the assay on EKVX NSCLC it was inactive: 99%; in the assay with SN12C renal, inactive: 93.6%; with UO-31 renal, inactive: 80%; with TK-10 renal it was inactive: 108%; with ACHN renal it was inactive: 101%. For the same compound, the growth is inactive: 104% in the assay with CAKI-1 renal; inactive: 94.5% in the assay with A498 renal; inactive: 104% in the assay on HL-60(TB) leukemia; inactive: 96.6% with CCRF-CEM leukemia; inactive: 85% with MOLT-4 leukemia; inactive: 85.9% in the assay on RPMI-8226 leukemia. The growth with OVCAR-8 ovarian is inactive: 98%; with OVCAR-5 ovarian, inactive: 122%; in the assay on OVCAR-4 ovarian, inactive: 97.1%; with SK-OV-3 ovarian, inactive: 124%; with IGROV1 ovarian it was inactive: 97.2%; in the assay on OVCAR-3 ovarian, inactive: 87.3%. For the same compound, the growth with HS 578T breast was inactive: 119%.
As for `O=P(O)(O)F`, the growth in the assay with SK-MEL-2 melanoma was inactive: 121%; in the assay on EKVX NSCLC, inactive: 105%; in the assay on SN12C renal, inactive: 99.4%; with UO-31 renal it was inactive: 84.1%; in the assay on TK-10 renal, inactive: 113%; with ACHN renal it was inactive: 100%. Besides, the growth with CAKI-1 renal is inactive: 93.5%; with A498 renal it was inactive: 92.8%; in the assay on HL-60(TB) leukemia, inactive: 110%; in the assay with CCRF-CEM leukemia, inactive: 100%; with MOLT-4 leukemia it was inactive: 108%; with SR leukemia it was inactive: 107%. The growth is inactive: 99.1% in the assay with OVCAR-8 ovarian; inactive: 96.5% with OVCAR-5 ovarian; inactive: 116% in the assay on OVCAR-4 ovarian; inactive: 129% with SK-OV-3 ovarian; inactive: 105% in the assay on IGROV1 ovarian; inactive: 106% with OVCAR-3 ovarian. In addition, in the assay on HS 578T breast, the growth is inactive: 109%.
For `O=[N+]([O-])c1ccc(Nc2ccc(Oc3ccc([N+](=O)[O-])cc3[N+](=O)[O-])cc2)c([N+](=O)[O-])c1`, the growth in the assay with SK-MEL-2 melanoma was inactive: 87.5%; in the assay with EKVX NSCLC, inactive: 79.5%; in the assay with SN12C renal it was inactive: 76.3%; with UO-31 renal it was inactive: 46.9%; with TK-10 renal, inactive: 78%; in the assay with ACHN renal, inactive: 82.4%. Further, the growth in the assay on CAKI-1 renal is inactive: 71.3%; in the assay with A498 renal, inactive: 97.6%; in the assay with HL-60(TB) leukemia it was inactive: 13.8%; in the assay on CCRF-CEM leukemia, inactive: 65.7%; in the assay on SR leukemia it was inactive: 27.5%; in the assay with RPMI-8226 leukemia, inactive: 35.5%. Moreover, the growth was inactive: 80.4% with OVCAR-8 ovarian; inactive: 113% in the assay on OVCAR-5 ovarian; inactive: 51.4% in the assay with OVCAR-4 ovarian; inactive: 87.8% in the assay on SK-OV-3 ovarian; inactive: 81.8% with IGROV1 ovarian; inactive: 90.1% with OVCAR-3 ovarian. Moreover, in the assay with HS 578T breast, the growth is inactive: 98.4%.
Consider `ClCCN1Cc2ccccc2C1`, for which the growth in the assay on SK-MEL-2 melanoma was inactive: 99.5%; in the assay on EKVX NSCLC it was inactive: 98.3%; in the assay on SN12C renal it was inactive: 103%; with UO-31 renal it was inactive: 96.9%; in the assay on TK-10 renal it was inactive: 86.8%; in the assay with ACHN renal, inactive: 96.7%. Also, the growth in the assay on CAKI-1 renal is inactive: 95.8%; with A498 renal, inactive: 86.8%; in the assay on CCRF-CEM leukemia, inactive: 107%; with MOLT-4 leukemia it was inactive: 113%; with SR leukemia, inactive: 72.7%; in the assay on RPMI-8226 leukemia, inactive: 94.5%. Moreover, the growth in the assay on OVCAR-8 ovarian was inactive: 103%; in the assay with OVCAR-5 ovarian it was inactive: 96.5%; with OVCAR-4 ovarian, inactive: 94.2%; with SK-OV-3 ovarian, inactive: 111%; in the assay with IGROV1 ovarian, inactive: 101%; with OVCAR-3 ovarian it was inactive: 102%. Further, the growth with HS 578T breast is inactive: 97.6%.
For the compound `S=P1(S)SC(Nc2ccccc2)CN1c1ccccc1` (configuration not stated), the growth was inactive: 96.3% in the assay on SK-MEL-2 melanoma; inactive: 94.5% with EKVX NSCLC; inactive: 99.1% with SN12C renal; inactive: 66.3% with UO-31 renal; inactive: 117% with TK-10 renal; inactive: 98.2% in the assay with ACHN renal. In addition, the growth with CAKI-1 renal was inactive: 78.8%; in the assay on A498 renal, inactive: 94.3%; in the assay with HL-60(TB) leukemia it was inactive: 101%; in the assay with CCRF-CEM leukemia, inactive: 100%; in the assay with MOLT-4 leukemia, inactive: 104%; in the assay with RPMI-8226 leukemia it was inactive: 99.3%. Moreover, the growth in the assay with OVCAR-8 ovarian is inactive: 105%; in the assay with OVCAR-5 ovarian it was inactive: 98.9%; in the assay on OVCAR-4 ovarian it was inactive: 111%; with SK-OV-3 ovarian it was inactive: 100%; in the assay with IGROV1 ovarian, inactive: 102%; with OVCAR-3 ovarian, inactive: 113%. Also, the growth in the assay with HS 578T breast was inactive: 103%.
